US9597369B2, “Inhibitors of atypical protein kinase C and their use in treating hedgehog pathway-dependent cancers” (The Board of Trustees of the Leland Stanford Junior …, priority 2011, dated 2017)

Tests used:
Smo resistant cell lines = assay: Cell proliferation of Smo-resistant BCC cell lines; format: cell-based, mouse; details: lines resistant to high levels of Sant-1, FIG. 4e
Description: Primary mouse dermal cells were isolated as previously described (Bershteyn, M., Atwood, S. X., Woo, W.-M., Li, M. & Oro, A. E. MIM and cortactin antagonism regulates ciliogenesis and hedgehog signaling. Dev. Cell 19, 270-283 (2010)). Dermal cells were grown in Amniomax media containing supplement and antibiotics (Invitrogen). ASZ001 cells were grown in 154CF media containing 2% chelated FBS, HKGS supplement, and antibiotics (Invitrogen). Keratinocytes (HPA Culture Collections) were grown in CnT-07 media containing supplement and 0.07 mM CaCl2 (CelINTec). Cells were sterum-starved between 24-48 hrs to induce ciliogenesis. MTT cell proliferation assay was performed using manufacturer's protocol from Invitrogen.
Smo resistant cell lines were generated by treating BCC cells with increasingly higher concentrations of Sant-1 every passage for three weeks. Final resistant cell lines were grown in 60 uM Sant-1. Cyclopamine was used to inhibit Hh signaling to verify Smo resistance.

Hh signaling = Hh signaling (gli1 mRNA, Gli target gene induction) in BCC cells; format: cell-based, mouse; details: BCC cells with SAG, FIG. 3d
Description: Drug treatments for cells were performed with myristoylated PSI (myr-SIYRRGARRWRKLY (SEQ ID NO:4)), Sant-1 (Tocris Bioscience), cyclopamine (Tocris Bioscience), SAG (EMD), and cyclohexamide (Sigma). Subconfluent ASZ001 cells were serum-starved and inhibitors added for 48 hrs prior to MTT assay and 24 hrs prior to visualize cilia and assay Gli target gene induction. Stability assays performed with ASZ001 preincubated with PSI for one hour before 20 ug/ml cyclohexamide addition at various time points.
Aligned 36 bp raw reads with Bowtie using the NCBI37/mm9 reference genome. Differential expression analysis was performed on the 3′ exon with the Cufflinks suite using mouse RefSeq gene predictions as a reference transcriptome. Annotated coding transcripts were filtered for significant expression by a RPKM of 25 in at least one sample set. Transcripts that were two-fold or greater changed in drug-treated samples were hierarchically clustered using the Cluster program and visualized in Java Treeview. Transcripts were validated using Brilliant II SYBR Green qRT-PCR Master Mix Kit (Agilent Technologies) with primers listed in the following table. Two-tail p-value between our gene sets and other gene sets calculated using Fisher's Exact Test.

Q: `CC1=C2C[C@H]3[C@@H](CC=C4C[C@@H](O)CC[C@@]43C)[C@@H]2CC[C@]12O[C@@H]1C[C@H](C)CN[C@H]1[C@H]2C` [cyclopamine] was tested. Which “cell proliferation of Smo-resistant BCC cell lines” value (Smo resistant cell lines) did it give?
A: little effect on cell proliferation

Q: What about the “SAG-induced activation of gli1 transcription” value (Hh signaling) of the same compound?
A: can be outcompeted by SAG-mediated activation
